Drawing on PubChem BioAssay AID1194 (EPA DSSTox, 2008), this text covers outcome for three compounds.

The source made the active and inactive calls.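 Rule for the calls: active = chemicals rated mutagenic or weakly mutagenic in the Salmonella bacterial test by one literature review, or positive overall by another; inconclusive = no clear call, values can overlap the other calls; inactive = the rest.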

The test system of this data set is Salmonella typhimurium Ames mutagenicity, literature compiled. The data set is described as follows: DSSTox (CPDBAS) Carcinogenic Potency Database Salmonella Mutagenicity. An excerpt:
The Carcinogenic Potency Database (CPDB) is a unique and widely used international resource of the results of over 6500 chronic, long-term animal cancer tests on over 1500 chemical substances. The CPDB provides easy access to the bioassay literature, with qualitative and quantitative analyses of both positive and negative experiments that have been published over the past 50 years in the general literature and by the National Cancer Institute/National Toxicology Program. The CPDB standardizes the diverse literature of cancer bioassays that vary widely in protocol, histopathological examination and nomenclature, and in the published author's choices of what information to provide in their papers. Results are reported in the CPDB for tests in rats, mice, hamsters, dogs, and nonhuman primates, and are based on the most positive result among all experiments for each sex-species. The DSSTox CPDBAS (all species) file incorporates data from the CPDB Summary Tables for the full list of over 1500 chemical substances tested in at least one species.
A chemical is classified within the CPDB as mutagenic, i.e. "active", in the Salmonella assay if it was evaluated overall as either "mutagenic" or "weakly mutagenic" by Zeiger [Zeiger, E. (1997) Genotoxicity Database. In: Gold and Zeiger, Eds. Handbook of Carcinogenic Potency and Genotoxicity Databases. Boca Raton, FL: CRC Press, pp. 687-729. http://potency.berkeley.edu/CRCbook.html] or as overall "positive" by the EPA Gene-Tox Program [Kier et al. (1986) Mutat. Res. 168: 69-240].

As to `COP(C)(=O)OC`, the outcome was “inactive; active”.

In the case of `O=[N+]([O-])OCC(CO[N+](=O)[O-])(CO[N+](=O)[O-])CO[N+](=O)[O-]`, the outcome is “inactive; active”.

As for `ClCl`, the outcome was “inactive; active”.
